This assay addresses Kappa-type opioid receptor (Homo sapiens, UniProt P41145).

pEC50: −log10 of the molar value.

In general, pEC50 refers to the negative decadic logarithm of the EC50, by convention in mol/L. Read a low pEC50 as a large EC50.

Turning to `CC(C)(C)[C@@]1(C)OCO[C@]23CC[C@@]4(C[C@@H]21)[C@H]1Cc2ccc(OCc5ccccc5)c5c2[C@@]4(CCN1CC1CC1)[C@H]3O5`, the pEC50 was less than 4.70.

(Values after ChEMBL document CHEMBL3886656, “1,3-dioxanomorphides and 1,3-dioxanocodides” (2016).)
